These are literature values, as cited in publication PMC6844378, “Structure activity relationship studies on Amb639752: toward the identification of a common pharmacophoric structure for DGKα inhibitors” (Journal of Enzyme Inhibition and Medicinal Chemistry, 2019).

The chains behind the UniProt entries cited, without tags or fusion partners.
UniProt P23743, whole entry: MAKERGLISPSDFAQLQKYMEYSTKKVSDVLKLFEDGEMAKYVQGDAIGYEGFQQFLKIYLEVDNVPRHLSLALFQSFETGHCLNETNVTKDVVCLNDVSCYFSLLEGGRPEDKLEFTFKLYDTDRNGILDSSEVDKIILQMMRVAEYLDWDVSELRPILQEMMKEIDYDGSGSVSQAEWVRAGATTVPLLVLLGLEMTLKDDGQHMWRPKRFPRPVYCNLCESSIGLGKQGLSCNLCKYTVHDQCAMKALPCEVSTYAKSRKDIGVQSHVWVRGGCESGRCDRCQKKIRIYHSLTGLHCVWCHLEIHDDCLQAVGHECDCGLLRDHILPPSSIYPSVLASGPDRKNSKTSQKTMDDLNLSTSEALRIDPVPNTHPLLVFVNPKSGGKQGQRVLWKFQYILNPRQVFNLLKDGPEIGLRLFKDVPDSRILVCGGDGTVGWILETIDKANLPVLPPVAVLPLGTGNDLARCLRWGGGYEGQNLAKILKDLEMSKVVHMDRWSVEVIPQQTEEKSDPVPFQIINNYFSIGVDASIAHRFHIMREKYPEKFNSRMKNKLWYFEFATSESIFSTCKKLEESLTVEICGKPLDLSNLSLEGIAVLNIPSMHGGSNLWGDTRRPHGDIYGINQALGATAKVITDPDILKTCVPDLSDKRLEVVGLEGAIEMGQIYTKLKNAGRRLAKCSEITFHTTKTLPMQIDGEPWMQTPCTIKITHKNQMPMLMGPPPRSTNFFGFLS

By IC50 is commonly meant the midpoint of a concentration-inhibition curve.

This data set has as its target DGKα (Homo sapiens, UniProt P23743). To be noted: read-out: IC50 on DGKα; cited from earlier work.

On to `O=C1/C(=C\C=C\c2ccco2)SC(=S)N1NS(=O)(=O)c1ccccc1`, for which the IC50 was 600 nM.
